Assay [1] addresses CoREST (Homo sapiens, UniProt Q13547). The assay is described as follows: HDAC inhibition assay, CoREST complex (Table 1, run under different conditions). The settings on record: read-out: CoREST IC50; Table 1 conditions (differ from FIG. 3). It counts as biochemical.
Assay [2] has as its target NuRD (Homo sapiens, UniProt Q13547). The assay can be described thus: HDAC inhibition assay, NuRD complex (Table 1). Conditions: read-out: NuRD IC50. It counts as biochemical.
Assay [3] has as its target MiDAC (Homo sapiens, UniProt Q13547). The assay is described as follows: HDAC inhibition assay, MiDAC complex (Table 1). It is filed as biochemical. Conditions: read-out: MiDAC IC50.
Assay [4] deals with HDAC1 (Homo sapiens, UniProt Q13547). The assay can be described thus: HDAC1 degradation in HCT116 cells, quantitative western blot. The settings on record: HCT116, screened at 0.1, 1 and 10 μM; maximum degradation irrespective of concentration.
The target in assay [5] is HDAC2 (Homo sapiens, UniProt Q92769). The assay is described as follows: HDAC2 degradation in HCT116 cells, quantitative western blot. Conditions: HCT116, screened at 0.1, 1 and 10 μM; maximum degradation irrespective of concentration. (In general: In western blotting, separated proteins are transferred to a membrane and probed.)
Assay [6] concerns the target HDAC3 (Homo sapiens, UniProt O15379). The assay is described as follows: HDAC3 degradation in HCT116 cells, quantitative western blot. Conditions: HCT116, screened at 0.1, 1 and 10 μM; maximum degradation irrespective of concentration.
The target of assay [7] is LSD1-CoREST-HDAC1 complex (Homo sapiens, UniProt Q13547). The assay can be described thus: fluorescent deacetylase assay with the LSD1-CoREST-HDAC1 complex (Example 2, FIG. 3A). It counts as biochemical. Conditions: LSD1-CoREST-HDAC1 complex in vitro.
Assay [8] has as its system H3K56ac. The assay can be described thus: H3K56ac levels in E14 mouse embryonic stem cells, quantitative western blot. The settings on record: E14 mES cells, 24 h; CI-994 40 μM, Panobinostat 30 nM.

Chains of the proteins cited; added tags and fusions are not shown. Residues count along the entry.
UniProt Q13547, whole entry: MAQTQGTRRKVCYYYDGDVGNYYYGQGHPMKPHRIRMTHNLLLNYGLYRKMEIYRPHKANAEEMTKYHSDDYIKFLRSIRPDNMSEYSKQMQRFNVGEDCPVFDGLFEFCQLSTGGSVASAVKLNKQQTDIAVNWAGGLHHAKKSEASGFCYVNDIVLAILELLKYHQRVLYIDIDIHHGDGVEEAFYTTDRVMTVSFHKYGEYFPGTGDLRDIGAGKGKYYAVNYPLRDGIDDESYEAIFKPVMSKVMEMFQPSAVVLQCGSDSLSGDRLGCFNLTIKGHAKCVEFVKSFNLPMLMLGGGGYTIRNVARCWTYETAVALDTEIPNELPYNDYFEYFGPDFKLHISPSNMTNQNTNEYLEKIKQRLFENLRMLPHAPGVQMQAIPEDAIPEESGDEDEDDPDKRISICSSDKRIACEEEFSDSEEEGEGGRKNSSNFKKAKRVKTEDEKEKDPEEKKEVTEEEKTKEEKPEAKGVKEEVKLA
UniProt Q92769, whole entry: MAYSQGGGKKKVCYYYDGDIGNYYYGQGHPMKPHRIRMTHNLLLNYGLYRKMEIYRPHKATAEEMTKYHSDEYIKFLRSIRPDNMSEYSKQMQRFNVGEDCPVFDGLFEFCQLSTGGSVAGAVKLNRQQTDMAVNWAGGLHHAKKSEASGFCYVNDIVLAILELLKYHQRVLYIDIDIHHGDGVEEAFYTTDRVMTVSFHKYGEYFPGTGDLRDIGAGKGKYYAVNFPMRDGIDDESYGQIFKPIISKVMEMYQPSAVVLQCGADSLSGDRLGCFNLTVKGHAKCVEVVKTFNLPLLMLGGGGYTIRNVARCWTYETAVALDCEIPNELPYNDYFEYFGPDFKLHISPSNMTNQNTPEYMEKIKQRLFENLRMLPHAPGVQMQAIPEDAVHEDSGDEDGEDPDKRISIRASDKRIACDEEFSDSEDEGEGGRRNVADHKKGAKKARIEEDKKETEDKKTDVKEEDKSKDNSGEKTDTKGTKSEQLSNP
UniProt O15379, whole entry: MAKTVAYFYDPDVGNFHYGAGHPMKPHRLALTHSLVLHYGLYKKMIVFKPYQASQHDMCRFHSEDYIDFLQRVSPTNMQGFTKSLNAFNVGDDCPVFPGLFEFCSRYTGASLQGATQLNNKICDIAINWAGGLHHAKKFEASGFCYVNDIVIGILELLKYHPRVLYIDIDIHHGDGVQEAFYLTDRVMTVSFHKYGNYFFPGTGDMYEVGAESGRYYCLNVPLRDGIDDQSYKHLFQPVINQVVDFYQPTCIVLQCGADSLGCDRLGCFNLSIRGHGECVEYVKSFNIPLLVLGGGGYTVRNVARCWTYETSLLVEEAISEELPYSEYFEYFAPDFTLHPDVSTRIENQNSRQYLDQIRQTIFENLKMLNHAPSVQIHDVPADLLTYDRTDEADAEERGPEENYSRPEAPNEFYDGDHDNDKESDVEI
UniProt Q9UKL0, 86-485 partner limits assumed: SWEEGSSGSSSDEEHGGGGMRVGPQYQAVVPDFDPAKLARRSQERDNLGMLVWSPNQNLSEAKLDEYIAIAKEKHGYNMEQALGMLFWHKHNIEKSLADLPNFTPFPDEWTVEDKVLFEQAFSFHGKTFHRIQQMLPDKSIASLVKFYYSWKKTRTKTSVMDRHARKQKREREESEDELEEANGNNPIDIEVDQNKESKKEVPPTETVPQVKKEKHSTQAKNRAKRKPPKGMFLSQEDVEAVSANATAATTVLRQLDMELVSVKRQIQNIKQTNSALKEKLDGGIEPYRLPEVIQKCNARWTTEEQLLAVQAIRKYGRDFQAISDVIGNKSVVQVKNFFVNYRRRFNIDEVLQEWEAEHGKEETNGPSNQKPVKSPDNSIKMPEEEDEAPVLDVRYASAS
UniProt Q13330, 162-546 partner limits assumed: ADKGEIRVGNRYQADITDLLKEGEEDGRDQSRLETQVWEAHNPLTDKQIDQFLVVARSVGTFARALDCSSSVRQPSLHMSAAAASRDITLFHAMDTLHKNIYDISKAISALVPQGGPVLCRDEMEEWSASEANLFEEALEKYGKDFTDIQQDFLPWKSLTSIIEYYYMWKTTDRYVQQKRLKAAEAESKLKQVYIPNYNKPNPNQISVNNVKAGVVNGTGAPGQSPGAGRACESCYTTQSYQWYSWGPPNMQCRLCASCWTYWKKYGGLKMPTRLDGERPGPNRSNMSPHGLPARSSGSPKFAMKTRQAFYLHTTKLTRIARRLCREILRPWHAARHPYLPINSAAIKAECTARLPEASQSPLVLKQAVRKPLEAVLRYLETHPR
UniProt Q6PJG2, 628-887 partner limits assumed: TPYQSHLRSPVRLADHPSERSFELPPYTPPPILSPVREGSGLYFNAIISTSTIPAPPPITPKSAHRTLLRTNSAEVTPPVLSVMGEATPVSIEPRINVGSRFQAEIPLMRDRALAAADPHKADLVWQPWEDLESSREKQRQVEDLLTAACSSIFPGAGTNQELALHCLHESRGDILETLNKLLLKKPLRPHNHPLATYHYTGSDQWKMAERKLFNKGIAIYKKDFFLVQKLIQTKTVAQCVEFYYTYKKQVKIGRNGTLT
UniProt Q09028, whole entry partner: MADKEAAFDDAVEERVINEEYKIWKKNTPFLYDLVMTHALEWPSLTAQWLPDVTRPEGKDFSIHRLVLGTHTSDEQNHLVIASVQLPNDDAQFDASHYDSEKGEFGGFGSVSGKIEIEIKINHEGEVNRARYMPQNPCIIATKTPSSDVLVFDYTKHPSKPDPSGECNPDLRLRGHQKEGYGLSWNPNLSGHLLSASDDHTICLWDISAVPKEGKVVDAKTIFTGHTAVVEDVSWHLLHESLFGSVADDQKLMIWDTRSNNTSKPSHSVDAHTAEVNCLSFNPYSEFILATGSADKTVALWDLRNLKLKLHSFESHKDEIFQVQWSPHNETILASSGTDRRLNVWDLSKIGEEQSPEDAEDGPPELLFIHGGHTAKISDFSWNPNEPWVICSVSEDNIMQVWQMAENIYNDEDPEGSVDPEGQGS
UniProt Q9H147, whole entry partner: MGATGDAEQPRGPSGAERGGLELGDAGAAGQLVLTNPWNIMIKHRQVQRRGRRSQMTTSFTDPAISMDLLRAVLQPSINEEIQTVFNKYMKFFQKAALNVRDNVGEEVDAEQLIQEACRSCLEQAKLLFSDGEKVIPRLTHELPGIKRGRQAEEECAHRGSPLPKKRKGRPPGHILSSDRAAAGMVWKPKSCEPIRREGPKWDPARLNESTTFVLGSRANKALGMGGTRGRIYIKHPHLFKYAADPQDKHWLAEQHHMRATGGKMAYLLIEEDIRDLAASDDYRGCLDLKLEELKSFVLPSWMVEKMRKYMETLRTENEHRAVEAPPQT

A word on the IC50: it is the concentration at which inhibition is half-maximal. In the case of `Nc1ccccc1NC(=O)c1ccc(NC(=O)COCCOCCOCCNC(=O)COc2cccc3c2C(=O)N(C2CCC(=O)NC2=O)C3=O)cc1` (stereo not shown), the IC50 in assay [1] was 3.7 µM; in assay [2], 3.24 µM; in assay [3] it was 17.2 µM. Also, in assay [4], the “HDAC1 Degrader (% Degradation)” value amounted to 28%. For the same compound, in assay [5], the “HDAC 2 Degrader (% Degradation)” value is given as “No”. Besides, the “HDAC 3 degrader (% Degradation)” value in assay [6] turned out to be 43%.

For the compound `Cc1ncsc1-c1ccc(CNC(=O)[C@@H]2C[C@@H](O)CN2C(=O)[C@@H](NC(=O)CCCCC(=O)Nc2ccc(C(=O)Nc3ccccc3N)cc2)C(C)(C)C)cc1`, the IC50 result in assay [7] is given as “directly comparable to CI-994”. Besides, the H3K56 acetylation level entry in assay [8] is reported as “failed to alter histone acetylation levels”.

With `Nc1ccccc1NC(=O)c1ccc(NC(=O)CCCCCNC(=O)COc2cccc3c2C(=O)N(C2CCC(=O)NC2=O)C3=O)cc1` (stereo not shown), the IC50 result in assay [7] is recorded as “directly comparable to CI-994”. For the same compound, in assay [8], the H3K56 acetylation level result is “failed to alter histone acetylation levels”.
